Tested on: R2-hPCFT#4 cells (hPCFT-expressing R2 CHO)
Assay: cells
Conditions: Cricetulus griseus, 96 h, read-out: Growth inhibition 50% inhibitory concentration, R2-hPCFT#4

Compound	IC50
Nc1nc2[nH]c(CCCCc3ccc(C(=O)N[C@@H](CCC(=O)O)C(=O)O)s3)cc2c(=O)[nH]1 [AAG154353, (S)-2-({5-[4-(2-amino-4-oxo-4,7-dihydro-3H-pyrrolo[2,3-d]pyrimidin-6-yl)-butyl]thiophene-2-carbonyl}-amino)-pentanedioic acid]	0.0483 ± 0.0178 µM
Nc1nc2c(c(=O)[nH]1)C[C@@H](CCc1ccc(C(=O)N[C@@H](CCC(=O)O)C(=O)O)cc1)CN2 [Lometrexol, lometrexol, reference compound]	0.183 ± 0.0126 µM
CN(Cc1cnc2nc(N)nc(N)c2n1)c1ccc(C(=O)N[C@@H](CCC(=O)O)C(=O)O)cc1 [Methotrexate, methotrexate]	0.143 ± 0.0294 µM
Nc1nc2[nH]cc(CCc3ccc(C(=O)N[C@@H](CCC(=O)O)C(=O)O)cc3)c2c(=O)[nH]1 [Pemetrexed, pemetrexed]	0.0275 ± 0.00326 µM
Cc1nc2ccc(CN(C)c3ccc(C(=O)N[C@@H](CCC(=O)O)C(=O)O)s3)cc2c(=O)[nH]1 [Raltitrexed, raltitrexed]	0.0638 ± 0.00326 µM
